Laboratory results published in ChEMBL document CHEMBL5365417, “The development of diphenyleneiodonium analogs as GPR3 agonists” (Bioorg Med Chem Lett, 2023).

Amino acid sequences for entries named in this document (tags omitted).
UniProt P46095, whole entry R220Y: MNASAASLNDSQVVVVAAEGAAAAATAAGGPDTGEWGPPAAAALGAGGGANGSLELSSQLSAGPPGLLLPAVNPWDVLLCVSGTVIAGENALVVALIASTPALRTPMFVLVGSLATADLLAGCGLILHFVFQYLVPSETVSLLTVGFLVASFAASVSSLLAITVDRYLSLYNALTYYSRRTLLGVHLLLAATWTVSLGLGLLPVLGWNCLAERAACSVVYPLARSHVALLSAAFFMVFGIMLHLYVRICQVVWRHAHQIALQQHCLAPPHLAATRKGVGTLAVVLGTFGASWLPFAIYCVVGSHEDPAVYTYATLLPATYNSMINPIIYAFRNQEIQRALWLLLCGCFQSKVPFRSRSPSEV

Columns and labels:
Type in all cases: functional, cell-based
[1] = target: G-protein coupled receptor 6 (Homo sapiens) (UniProt P46095); assay: Agonist activity at human GPR6 expressed in HEK293 cells assessed as increase in cAMP accumulation at 10 uM incubated for 30 mins by HTRF assay
[2] = target: T1, G-protein coupled receptor 12 (Homo sapiens) (UniProt P47775); assay: Agonist activity at human GPR12 expressed in HEK293 cells assessed as increase in cAMP accumulation at 10 uM incubated for 30 mins by HTRF assay
T1 sequence (whole entry): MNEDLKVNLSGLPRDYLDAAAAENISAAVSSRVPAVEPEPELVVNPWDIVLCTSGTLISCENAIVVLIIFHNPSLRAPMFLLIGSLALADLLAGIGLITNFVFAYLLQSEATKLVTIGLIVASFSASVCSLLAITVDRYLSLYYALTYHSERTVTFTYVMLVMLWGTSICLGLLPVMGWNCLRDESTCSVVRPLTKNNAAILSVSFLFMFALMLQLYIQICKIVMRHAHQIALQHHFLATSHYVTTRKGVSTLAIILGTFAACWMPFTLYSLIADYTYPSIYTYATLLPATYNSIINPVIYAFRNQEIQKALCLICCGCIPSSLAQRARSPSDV

[3] = system: G-protein coupled receptor 6 (Homo sapiens), P46095 [R220Y]; assay: Agonist activity at human GPR6 R220Y mutant in ECL2 expressed in HEK293 cells assessed as increase in cAMP accumulation incubated for 30 mins by HTRF assay

- Activity [1]: inactive
- Activity [2]: inactive
- Activity [3]: inactive
SMILES: FC(F)(F)Oc1ccc2c(c1)[I+]c1ccccc1-2

Active and inactive are the calls of the source. The rule behind the calls is not given here.
